{"source": "patent US11970436B2", "about": "“Pharmaceutical compositions comprising monoterpenes” (NEONC Technologies, Inc., priority 2010, dated 2024)", "test_system": "U87 human malignant glioma cells", "settings": "MTT; purity increase about 2.6%"}
{"smiles": "C=C(C)[C@@H]1CC=C(CO)CC1", "note": "[purified POH, (S)-perillyl alcohol]", "values": [{"measurement": "increase of cytotoxic property compared to Sigma (S)-perillyl alcohol", "value": "about 125%"}]}
